The values that follow are results of earlier work, collected in patent US9910050B2, “Mutant smoothened and methods of using the same” (Curis, Inc., priority 2009, dated 2018).

For this data set, the system named is Smo localization to the primary cilium. Conditions: literature reports; cited from earlier work.

Consider `CC1=C2C[C@H]3[C@@H](CC=C4C[C@@H](O)CC[C@@]43C)[C@@H]2CC[C@]12O[C@@H]1C[C@H](C)CN[C@H]1[C@H]2C` [cyclopamine], for which the “ciliary accumulation of Smo in the absence of active Hh signaling” value is recorded as “promote ciliary accumulation of Smo”.
